Measurements taken from patent US10202345B2, “Substituted azaspiro(4.5)decane derivatives” (priority 2014, dated 2019).

By UniProt entry, the sequences of proteins in these tests, tags left out.
UniProt P35372, whole entry: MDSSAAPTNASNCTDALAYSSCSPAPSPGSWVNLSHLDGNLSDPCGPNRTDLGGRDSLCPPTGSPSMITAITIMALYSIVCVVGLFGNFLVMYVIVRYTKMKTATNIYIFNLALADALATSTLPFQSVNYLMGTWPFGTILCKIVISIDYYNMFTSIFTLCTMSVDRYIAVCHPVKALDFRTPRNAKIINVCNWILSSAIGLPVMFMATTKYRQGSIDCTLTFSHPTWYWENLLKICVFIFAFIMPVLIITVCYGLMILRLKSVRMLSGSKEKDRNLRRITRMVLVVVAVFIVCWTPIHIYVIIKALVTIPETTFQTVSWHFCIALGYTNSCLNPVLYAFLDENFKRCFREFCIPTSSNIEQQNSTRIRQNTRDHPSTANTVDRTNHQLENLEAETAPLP
UniProt P41146, whole entry: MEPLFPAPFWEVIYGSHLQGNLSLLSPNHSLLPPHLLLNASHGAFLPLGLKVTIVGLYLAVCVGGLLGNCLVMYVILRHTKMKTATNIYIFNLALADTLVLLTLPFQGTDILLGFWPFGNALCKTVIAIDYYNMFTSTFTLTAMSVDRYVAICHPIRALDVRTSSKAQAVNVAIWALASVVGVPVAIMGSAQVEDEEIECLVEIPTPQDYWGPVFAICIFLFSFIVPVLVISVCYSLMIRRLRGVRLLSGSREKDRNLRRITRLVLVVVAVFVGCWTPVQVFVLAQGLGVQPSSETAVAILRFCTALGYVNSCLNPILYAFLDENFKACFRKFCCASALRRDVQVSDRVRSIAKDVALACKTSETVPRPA

What was measured:
[1] = target: human μ opiate receptor (Homo sapiens, UniProt P35372); assay: μ opiate receptor binding assay with [3H]-naloxone (WGA-SPA beads); conditions: for Ki: read-out: Ki (μ) mean [μm], mean; for % inhibition (μ) [1 μM]: test concentration 1 μM
[2] = target: ORL1 receptor (Homo sapiens, UniProt P41146); assay: ORL1 receptor binding assay with 3H-nociceptin/orphanin FQ (WGA-SPA beads); conditions: for Ki: read-out: Ki (ORL1) mean, mean; for % inhibition (ORL1) [1 μM]: test concentration 1 μM

`CN(C)C1(c2cccs2)CCC2(CC1)CC(=O)N(CCC1(C#N)CC1)C2` (single isomer, unassigned) [145] was tested, and the Ki [1] was 161 nM, the “% inhibition (μ) [1 μM]” value ([1]; 1 µM) was 77% and the Ki [2] was 67.5 nM. For the same molecule, the “% inhibition (ORL1) [1 μM]” value ([2]; 1 µM) was 53%.

With `CN(C)C1(c2ccccc2)CCC2(CC1)CC(=O)N(CC1CCOC1)C2` (single isomer, unassigned) [261] the Ki [1] was 1400 nM, the “% inhibition (μ) [1 μM]” value ([1]; 1 µM) was 40% and the Ki [2] was 395 nM. The “% inhibition (ORL1) [1 μM]” value ([2]; 1 µM) was 42.5%.

For `CN(C)C1(c2ccccc2)CCC2(CC1)CC(=O)N(CC1CCOCC1)C2` (single isomer, unassigned) [269], the Ki [1] was 10.1 nM, the “% inhibition (μ) [1 μM]” value ([1]; 1 µM) was 93% and the Ki [2] was 12.5 nM. The “% inhibition (ORL1) [1 μM]” value ([2]; 1 µM) was 89.5%.

`CN(C)C1(c2ccccc2)CCC2(CC1)CC(=O)N(CCC(C)(C)C#N)C2` (single isomer, unassigned) [231] was tested, and the Ki [1] was 58.5 nM, the “% inhibition (μ) [1 μM]” value ([1]; 1 µM) was 91.5% and the Ki [2] was 180 nM. For the same molecule, the “% inhibition (ORL1) [1 μM]” value ([2]; 1 µM) was 43%.

With `CN(C)C1(c2cccs2)CCC2(CC1)CC(=O)N(CC1CCOC1)C2` (stereo not shown) the Ki [1] was 7.6 nM, the “% inhibition (μ) [1 μM]” value [1] was 97% and the Ki [2] was 8.8 nM. For the same molecule, the “% inhibition (ORL1) [1 μM]” value [2] was 93.5%.

In the case of `CN(C)C1(c2ccccc2)CCC2(CC1)CC(=O)N(CC1CCOC1)C2` (single isomer, unassigned) [260], the Ki [1] is reported as 53.5 nM, the “% inhibition (μ) [1 μM]” value ([1]; 1 µM) is reported as 93.5% and the Ki [2] is reported as 8.65 nM. For the same molecule, the “% inhibition (ORL1) [1 μM]” value ([2]; 1 µM) was 90%.

In the case of `CN(C)C1(c2cccs2)CCC2(CC1)CNC(=O)C2` (single isomer, unassigned) [24], the Ki [1] is reported as 130 nM, the “% inhibition (μ) [1 μM]” value ([1]; 1 µM) is reported as 70% and the Ki [2] is reported as 740 nM. The “% inhibition (ORL1) [1 μM]” value ([2]; 1 µM) was 49.5%.

In the case of `CCCCC1(N(C)C)CCC2(CC1)CC(=O)N(CCC1COC1)C2` (single isomer, unassigned) [410], the Ki [1] is reported as 5770 nM, the “% inhibition (μ) [1 μM]” value ([1]; 1 µM) is reported as 20.5% and the “% inhibition (ORL1) [1 μM]” value [2] is reported as 8%.

`CN(C)C1(c2ccccc2)CCC2(CC1)CC(=O)N(CCC(C)(C)C#N)C2` (single isomer, unassigned) [230] was tested, and the Ki [1] was 1.3 nM, the “% inhibition (μ) [1 μM]” value ([1]; 1 µM) was 98.5% and the Ki [2] was 3.15 nM. The “% inhibition (ORL1) [1 μM]” value ([2]; 1 µM) was 96.5%.

`CCCCN1CC2(CCC(c3ccccc3)(N(C)C)CC2)CC1=O` (stereo not shown) [164] was tested, and the Ki [1] was 365 nM, the “% inhibition (μ) [1 μM]” value ([1]; 1 µM) was 73% and the Ki [2] was 280 nM. For the same molecule, the “% inhibition (ORL1) [1 μM]” value ([2]; 1 µM) was 39%.

For `CN(C)C1(c2cccs2)CCC2(CC1)CC(=O)N(CC1CCC1)C2` (single isomer, unassigned) [132], the Ki [1] was 1.4 nM, the “% inhibition (μ) [1 μM]” value ([1]; 1 µM) was 99% and the Ki [2] was 0.79 nM. The “% inhibition (ORL1) [1 μM]” value ([2]; 1 µM) was 91.5%.

For `CCCCC1(N(C)C)CCC2(CC1)CC(=O)N(CCC1CCOC1)C2` (single isomer, unassigned) [400], the Ki [1] was 51.5 nM, the “% inhibition (μ) [1 μM]” value ([1]; 1 µM) was 86% and the Ki [2] was 825 nM. The “% inhibition (ORL1) [1 μM]” value ([2]; 1 µM) was 34%.

With `CN(C)C1(c2ccccc2)CCC2(CC1)CC(=O)N(CCC1CCC1)C2` (single isomer, unassigned) [173] the Ki [1] was 0.61 nM, the “% inhibition (μ) [1 μM]” value ([1]; 1 µM) was 97.5% and the Ki [2] was 0.32 nM. The “% inhibition (ORL1) [1 μM]” value ([2]; 1 µM) was 96.5%.

In the case of `CCCCC1(N(C)C)CCC2(CC1)CC(=O)N(CCC1CCOC1)C2` (single isomer, unassigned) [399], the Ki [1] is reported as 5770 nM, the “% inhibition (μ) [1 μM]” value ([1]; 1 µM) is reported as 20% and the “% inhibition (ORL1) [1 μM]” value ([2]; 1 µM) is reported as 0%.

With `CN(C)C1(c2ccccc2)CCC2(CCN(CCC3CCCO3)C2)CC1` (stereo not shown) the Ki [1] was 0.93 nM, the “% inhibition (μ) [1 μM]” value [1] was 99.5% and the Ki [2] was 2.45 nM. For the same molecule, the “% inhibition (ORL1) [1 μM]” value [2] was 93%.

In the case of `CN(C)C1(C2CCCC2)CCC2(CC1)CC(=O)N(CC1CCOC1)C2` (stereo not shown), the Ki [1] is reported as 27.5 nM, the “% inhibition (μ) [1 μM]” value [1] is reported as 95% and the Ki [2] is reported as 77.3 nM. The “% inhibition (ORL1) [1 μM]” value [2] was 52.5%.

With `CN(C)C1(Cc2ccccc2)CCC2(CCN(CC3CCCC3)C2=O)CC1` (single isomer, unassigned) [122] the Ki [1] was 670 nM, the “% inhibition (μ) [1 μM]” value ([1]; 1 µM) was 45% and the “% inhibition (ORL1) [1 μM]” value ([2]; 1 µM) was 21%.

For `CN(C)C1(c2cccs2)CCC2(CC1)CC(=O)N(CCC1COC1)C2` (single isomer, unassigned) [241], the Ki [1] was 8.75 nM, the “% inhibition (μ) [1 μM]” value ([1]; 1 µM) was 99% and the Ki [2] was 15 nM. For the same molecule, the “% inhibition (ORL1) [1 μM]” value ([2]; 1 µM) was 89.5%.

`CN(C)C1(c2cccs2)CCC2(CC1)CC(=O)N(CCC1COC1)C2` (single isomer, unassigned) [242] was tested, and the Ki [1] was 870 nM, the “% inhibition (μ) [1 μM]” value ([1]; 1 µM) was 51% and the Ki [2] was 450 nM. For the same molecule, the “% inhibition (ORL1) [1 μM]” value ([2]; 1 µM) was 38.5%.

For `CN(C)C1(c2cccs2)CCC2(CC1)CC(=O)N(CCC1CCCO1)C2` (single isomer, unassigned) [136], the Ki [1] was 1.02 nM, the “% inhibition (μ) [1 μM]” value ([1]; 1 µM) was 100% and the Ki [2] was 1.35 nM. For the same molecule, the “% inhibition (ORL1) [1 μM]” value ([2]; 1 µM) was 87.5%.

In the case of `COC(C)(C)CCN1CC2(CCC(c3cccs3)(N(C)C)CC2)CC1=O` (single isomer, unassigned) [219], the Ki [1] is reported as 945 nM, the “% inhibition (μ) [1 μM]” value ([1]; 1 µM) is reported as 46% and the Ki [2] is reported as 315 nM. For the same molecule, the “% inhibition (ORL1) [1 μM]” value ([2]; 1 µM) was 36%.

For `CN(C)C1(c2cccs2)CCC2(CC1)CC(=O)N(CC1COC1)C2` (single isomer, unassigned) [149], the Ki [1] was 3410 nM, the “% inhibition (μ) [1 μM]” value ([1]; 1 µM) was 54.5% and the Ki [2] was 785 nM. For the same molecule, the “% inhibition (ORL1) [1 μM]” value ([2]; 1 µM) was 22.5%.
